Reference: article PMC6831611, “Proof-of-Concept Study of Drug Brain Permeability Between in Vivo Human Brain and an in Vitro iPSCs-Human Blood-Brain Barrier Model” (Scientific Reports, 2019)
Like-named read-outs stand apart in the source and are kept apart here.

How the values were obtained:
human brain (BBB) = conditions: PET, cited from earlier work; for K1, rate constant for transfer from arterial plasma into brain: human brain
iPSC-hBBB monolayer = assay: Apparent permeability (Papp A to B) across the in vitro iPSC-hBBB model; conditions: PappAB
[1] = tested on: ABC transporters (P-gp) in the iPSC-hBBB model
[2] = tested on: ABC transporters in the in vitro primary rat cell based BBB model

| Substance | K1, rate constant for transfer from arterial plasma into brain (human brain (BBB); ref unpublished data) [mL.cm-3.min-1] | cerebral uptake / brain distribution in human brain (in words) (human brain (BBB); in vivo, human, ref S1 Table 1) | in vitro permeability across the iPSC-hBBB model (in words) (iPSC-hBBB monolayer) | ABC transporter substrate / interaction (in words) [1] | PappBA/PappAB efflux ratio (ER) [1] | efflux ratio (ER) [2] | K1, rate constant for transfer from arterial plasma into brain (human brain (BBB)) [mL.cm-3.min-1] |
| --- | --- | --- | --- | --- | --- | --- | --- |
| buprenorphine | 0.17 | high cerebral uptake | high permeability in only the iPSC-hBBB model |  |  |  |  |
| 2F-A85380-tartrate [fluoro-A85380] |  |  |  | likely to be also ABC transporter substrates | ≥ 1.25 | ≥ 1.25 | 0.11 |
